Experimental data taken from patent US20240059719A1, “GOLD COMPLEXES AS ANTICANCER AGENT” (King Saud University, priority 2023, published 2024).

System: MCF-7 breast cancer cells
Assay: Apoptosis analysis (Annexin V Live & Dead Cell Kit, flow cytometry)
Assay type: cell-based
Settings: 24 hours, MCF-7 cells

## CNC(=O)c1cc(Oc2ccc(NC(=O)Nc3ccc(Cl)c(C(F)(F)F)c3)cc2)ccn1 [sorafenib]
1 μM
  Induction of apoptosis (folds): 1.2 folds
3 μM
  Induction of apoptosis (folds): 1.3 folds
